# In patent US20100004289A1, “SUBSTITUTED BUTYROPHENONE DERIVATIVES” (priority 2005, published 2010):
# Target: T1, HERG channel receptor (Rattus norvegicus, UniProt O08962)
# T1 sequence (O08962 1-1163): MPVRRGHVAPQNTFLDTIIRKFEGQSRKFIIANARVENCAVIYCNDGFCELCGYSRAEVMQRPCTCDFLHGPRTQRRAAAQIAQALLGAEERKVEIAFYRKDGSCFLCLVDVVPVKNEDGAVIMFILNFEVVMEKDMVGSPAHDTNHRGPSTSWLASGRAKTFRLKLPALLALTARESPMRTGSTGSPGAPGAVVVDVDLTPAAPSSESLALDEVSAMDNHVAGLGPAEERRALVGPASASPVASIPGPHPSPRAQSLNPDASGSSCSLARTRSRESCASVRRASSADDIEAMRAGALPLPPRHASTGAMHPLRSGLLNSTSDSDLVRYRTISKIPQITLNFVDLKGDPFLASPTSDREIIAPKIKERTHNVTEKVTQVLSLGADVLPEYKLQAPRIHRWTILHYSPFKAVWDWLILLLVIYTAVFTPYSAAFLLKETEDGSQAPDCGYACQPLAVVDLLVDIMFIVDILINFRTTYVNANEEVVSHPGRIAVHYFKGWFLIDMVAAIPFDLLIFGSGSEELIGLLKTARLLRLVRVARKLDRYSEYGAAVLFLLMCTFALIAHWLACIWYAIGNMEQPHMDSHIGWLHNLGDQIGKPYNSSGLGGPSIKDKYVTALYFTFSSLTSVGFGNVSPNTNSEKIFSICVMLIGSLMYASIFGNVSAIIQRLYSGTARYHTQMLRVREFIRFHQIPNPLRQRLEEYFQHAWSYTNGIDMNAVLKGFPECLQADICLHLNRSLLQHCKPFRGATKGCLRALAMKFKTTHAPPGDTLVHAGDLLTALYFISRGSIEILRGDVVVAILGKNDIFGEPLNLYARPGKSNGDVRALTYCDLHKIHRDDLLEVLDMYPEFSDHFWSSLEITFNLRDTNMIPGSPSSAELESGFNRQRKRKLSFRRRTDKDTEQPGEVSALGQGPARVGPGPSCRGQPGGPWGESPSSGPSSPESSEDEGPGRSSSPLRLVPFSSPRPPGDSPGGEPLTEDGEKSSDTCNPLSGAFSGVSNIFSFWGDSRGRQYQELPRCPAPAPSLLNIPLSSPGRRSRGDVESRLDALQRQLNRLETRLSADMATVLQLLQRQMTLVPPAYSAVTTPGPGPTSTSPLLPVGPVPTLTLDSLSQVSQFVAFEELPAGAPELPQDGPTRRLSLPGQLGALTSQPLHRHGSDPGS
# Assay: Competitive binding at HERG channel ([3H]dofetilide)
# Conditions: read-out: Kd of radioligand at HERG channel receptor; rat striatal tissue
substance,measurement,value
[3H]dofetilide [reference compound],Kd,5 nM
